Test results from ChEMBL document CHEMBL1124876, “Organic phosphorus compounds. 5. (4-Benzothiazol-2-ylbenzyl)amidophosphonate as potent calcium antagonistic vasodilators” (J Med Chem, 1990).

Columns and labels:
Canis familiaris [1] = test: Coronary vasodilatory activity as increase in coronary flow was determined in dogs after 0.1 mg/kg i.v. administration of the compound; (SE +/- 10.8); conditions: route intravenous
Canis familiaris [2] = test: Coronary vasodilatory activity as increase in coronary flow was determined in dogs after 0.1 mg/kg i.v. administration of the compound; (SE +/- 5.1); conditions: route intravenous

For `CCOP(=O)(Cc1ccc(-c2nc3ccccc3s2)cc1)N1CCN(C)C1=O` (configuration not stated), the Max increase (Canis familiaris [1]) was 47.7%.

`CCOP(=O)(Cc1ccc(-c2nc3ccccc3s2)cc1)N1CCNC1=O` (configuration not stated) gave a Max increase (Canis familiaris [2]) of 17.3%.
